Laboratory results from patent publication US20060067886A1, “Gastrin receptor-avid peptide conjugates” (priority 1997, published 2006).

Experiment: Biodistribution of radiometal-DOTA-BBN conjugates in CF1 normal mice
Details: 1 hour post-injection

SMILES: CSCC[C@H](NC(=O)[C@H](CC(C)C)NC(=O)[C@H](Cc1cnc[nH]1)NC(=O)CNC(=O)[C@@H](NC(=O)[C@H](C)NC(=O)[C@H](Cc1c[nH]c2ccccc12)NC(=O)[C@H](CCC(N)=O)NC(=O)CCCCCCCNC(=O)CN1CCN(CC(=O)O)CCN(CC(=O)O)CCN(CC(=O)O)CC1)C(C)C)C(N)=O
- Avg % ID/gm, Spleen: 1.51 ± 0.41 % ID/gm
- Avg % ID/gm, Stomach: 1.02 ± 0.26 % ID/gm
